Experimental data from patent publication US7122524B2, “Tripeptides and tripeptide derivatives for the treatment of postlesional disease of the nervous system” (Neurotell AG, priority 2002, dated 2006).

NCC(=O)N[C@@H](Cc1ccccc1)C(=O)N1CCC[C@H]1C(=O)O [H-Gly-Phe-Pro-OH]
predicted absorption after peroral application (PAMPA classification): weakly absorbed
